The record followed here is PubChem BioAssay AID493056 (National Center for Advancing Translational Sciences (NCATS), 2011).

Sequences of proteins named here, by UniProt entry; tags and fusion partners are left off. A change or cut given only in a name is not applied to a line headed by its entry.
UniProt P34981: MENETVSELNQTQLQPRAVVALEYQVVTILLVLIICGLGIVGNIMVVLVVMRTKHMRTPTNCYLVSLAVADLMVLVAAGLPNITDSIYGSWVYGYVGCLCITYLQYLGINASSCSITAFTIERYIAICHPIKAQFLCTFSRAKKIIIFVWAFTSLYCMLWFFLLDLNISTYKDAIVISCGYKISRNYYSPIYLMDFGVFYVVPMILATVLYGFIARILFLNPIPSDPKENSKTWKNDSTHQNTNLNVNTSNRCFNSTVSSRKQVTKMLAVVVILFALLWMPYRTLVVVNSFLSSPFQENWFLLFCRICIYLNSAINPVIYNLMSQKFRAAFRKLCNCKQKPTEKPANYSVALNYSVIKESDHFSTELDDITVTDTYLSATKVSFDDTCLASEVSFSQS

SMILES strings stand for the structures. This is a selection; strong and weak results do not stand in their true shares. Activity calls are given as the source filed them. Rule as the data show it: active = enhancement above about 30%; inactive = the rest.

The target of the experiment is Thyrotropin-releasing hormone receptor (Homo sapiens) (UniProt P34981). Briefly: qHTS for Small Molecule Agonists and Allosteric Enhancers of Human TRH Receptor: Primary Screen for Enhancers. Also: 0% is about no effect. To be noted: TRHR cells, fluo-8 calcium fluorescence, EC20 TRH enhancement; at 2 µM; stronger effect = higher value. The source says:
NIH Chemical Genomics Center [NCGC] NIH Molecular Libraries Probe Centers Network [MLPCN] MLPCN Grant: MH089816-01 Assay Submitter (PI): Marvin Gershengorn This project aims to identify small drug-like molecules that activate (agonists) the thyrotropin releasing hormone (TRH) receptor (TRHR) or enhance its TRH-stimulated activity (allosteric enhancers). TRHR, a drug-accessible cell surface receptor expressed in specific brain regions, and its ligand TRH have been implicated in several central nervous system disorders, including depression and anxiety. Small molecule TRHR agonists or allosteric enhancers that are metabolically stable and able to cross the blood-brain barrier might serve as probes to elucidate the roles of brain TRH receptors in animal models, and might be valuable as lead compounds for the development of drugs to treat patients with central nervous system disorders. Upon TRHR-Gq activation in TRHR cells, intracellular calcium is released from stores in the endoplasmic reticulum. […] This primary screen measures compound-induced enhancement of an EC20 stimulation of the receptor by its native ligand.
For the HTS assay freshly prepared cells are plated at a density of 2000/well in 3 ul of complete DMEM medium containing 10% serum in 1536-well plates and cultured over night at 37 C in a humidified incubator with 5% CO2. The next day, 2 ul of a no wash calcium dye (ABD Bioquest) was added to the cells and plates were incubated at room temperature for 1 hour. For the assay, assay plates were loaded into the FDSS kinetic plate reader. A 10 cycle (1 second/cycle) baseline measurement is taken and then the FDSS online 1536 pintool delivers 23 nl of compound library (as well as TRH controls) to the plate. The plate is measured for kinetically at 1 cycle/sec for 180 seconds and is considered to be the agonist portion of the assay (eg, compounds which activate a positive calcium response during this portion are flagged as potential agonists). Following the 180 second read, 1 ul of either an EC20 (positive modulation assay) is delivered by an onboard pipette head. Measurements are taken kinetically for an additional 180 seconds. TRHR FDSS Screening Protocol 1. Reagent, 3 uL 2000 cells/well 1536 TC treated Black plate in media containing 10% FCS 2. Time, 18 hours, 33.5C 5% CO2 (cells grown at 37C) 3. Reagent, 2 uL ABD fluo-8 Ca dye 4. Time, 30 min-1.5hrs hours, Room temp (6 plates/batch) 5. Detector, EX 480/EM 530C, FDSS 10 cycles baseline (1sec/cycle) 6. Compound, 23 nL of stock solution from library 7. Detector, EX 480/EM 530C, FDSS 230 cycles (1sec/cycle) Agonist mode 8. Compound, 1 ul EC20 of TRH made up in HEPES HBSS, 10 nM final 9. Detector, EX 480/EM 530C, FDSS 100 cycles (1sec/cycle) Potentiator mode
A general note: Quantitative high-throughput screening tests each substance at several concentrations.
With `O=P1(Nc2ncccn2)COc2ccccc2OC1`, the enhancement was inactive: 7.97%.
In the case of `NS(=O)(=O)c1cccc(NC(=O)COC(=O)C(O)(c2ccccc2)c2ccccc2)c1` it was inactive: 6.6%.
With `O=P1(Nc2ccc(Br)cn2)COc2ccccc2OC1` the figure was inactive: -9.38%; with `O=[As](O)(c1cccs1)c1cccs1`, inactive: 5.68%.
With `Cc1ccc(OCC(=O)OC2CN3CCC2CC3)cc1` (stereo not given), the enhancement is inactive: 2.34%.
In the case of `Nc1cccc([As](=O)(O)c2ccccc2)c1` it was inactive: 0.766%.
With `Cc1ccc(C(=O)OC2CN3CCC2CC3)cc1` (stereo not given) the figure was inactive: -4.75%; with `CC1CCC(C(C)C)C(OP(=O)(Nc2ccccn2)c2ccccc2)C1` (stereo not given), inactive: -7.27%; with `Cc1nn(-c2ccccc2)c2c1P(=O)(N1CCOCC1)N(C)C(c1ccccc1)=N2` (stereo not given), inactive: 2.12%.
As for `O=C(/C=C/c1ccccc1)OC1CN2CCC1CC2` (stereo not given), the enhancement was inactive: -12.5%.
In the case of `CN(C)C1(CNC(=O)c2ccc(S(C)(=O)=O)cc2)CCCCC1`, the enhancement was inactive: -1.98%.
With `COc1ccccc1CNC(=O)COC(=O)C(O)(c1ccccc1)c1ccccc1` the figure was inactive: 6.29%; with `O=[As](O)(c1ccccc1Br)c1ccccc1Br`, inactive: 12.5%; with `CN(C(=O)Cc1ccc(Cl)c(Cl)c1)[C@@H]1CCCC[C@H]1N1CCCC1`, inactive: -5.05%.
In the case of `CC(C)/C=N\N=C(\N)N[N+](=O)[O-]` it was inactive: -0.408%; in that of `CCOP(=O)(Nc1ccc(C)cn1)OCC`, inactive: -1.19%; in that of `CCOP(=O)(NC(=NC(C)c1ccccc1)NC(C)c1ccccc1)OCC` (stereo not given), inactive: -0.335%.
In the case of `CCC1=CC2Cc3nc4ccc(Cl)cc4c(N)c3C(C1)C2` (stereo not given) it was inactive: 0.573%.
On to `O=P1(Nc2ccccn2)COc2ccccc2OC1`, for which the enhancement is inactive: 4.77%.
With `CC(C)(C)C(=O)NC(Sc1ncccn1)C(Cl)(Cl)Cl` (stereo not given) the figure was inactive: -2.31%; with `Clc1n[nH]nc1-c1nn[nH][15n]1`, inactive: -4.87%.
In the case of `CCCOP(=S)(Nc1nc(N)cc(=O)[nH]1)OCCC` it was inactive: -12.2%; in that of `Nc1cccc2c([As](=O)(O)O)cccc12`, inactive: 18.1%.
In the case of `Cc1ccc(NCCc2c([N+](=O)[O-])cc([N+](=O)[O-])cc2[N+](=O)[O-])cc1` it was inactive: -5.5%; in that of `CCOP(=O)(Nc1cccc2ccccc12)OCC`, inactive: 0.692%; in that of `COc1cc(C2NCCC3(OCCO3)C2(C)C)cc(OC)c1OC` (stereo not given), inactive: -1.22%.
Consider `CS(=O)(=O)c1ccc(Cl)c(NC(=O)COC(=O)C(O)(c2ccccc2)c2ccccc2)c1`, for which the enhancement was inactive: -7.79%.
In the case of `COc1cc(C(=O)NCC2(N3CCOCC3)CCCCC2)cc(Cl)c1OC(C)C` it was inactive: -3.55%; in that of `O=[As](O)(O)c1cccnc1`, inactive: 0.54%; in that of `O=C(OC1CN2CCC1CC2)c1ccc(Cl)cc1` (stereo not given), inactive: 1.73%.
With `O=[As](O)(c1cccc(O)c1)c1cccc(O)c1` the figure was inactive: 3.09%; with `Cc1cccc(OCC(=O)OC2CN3CCC2CC3)c1` (stereo not given), inactive: 0.352%.
In the case of `NC(=O)Nc1ccc([As](=O)(O)O)cc1` it was inactive: -0.01%.
In the case of `O=[N+]([O-])c1ccc2c(c1)nnn2O`, the enhancement is inactive: -3%.
In the case of `CN(C(=O)Cc1ccccc1)[C@@H]1CC[C@]2(CCCO2)C[C@H]1N1CCCC1`, the enhancement is inactive: -3.84%.
In the case of `CCOP1(=S)c2c(C)nn(CCC#N)c2N=C(c2ccc(F)cc2)N1C` (stereo not given) it was inactive: -6.68%; in that of `N#CCCN(C(=O)COC(=O)C(O)(c1ccccc1)c1ccccc1)c1ccc(F)cc1`, inactive: -1.49%; in that of `CS(=O)(=O)c1cc([N+](=O)[O-])c2no[n+]([O-])c2c1`, inactive: -5.04%.
In the case of `O=P(Nc1nccs1)(c1ccccc1)c1nc2ccccc2s1` (stereo not given) it was inactive: 1.47%; in that of `O=P(Nc1nccs1)(Oc1ccccc1)Oc1ccccc1`, inactive: 3.67%; in that of `CCOP1(=S)c2c(C)nn(CCC#N)c2N=C(c2ccccc2F)N1C` (stereo not given), inactive: 0.919%.
With `O=C(O)COc1ccc([As](=O)(O)O)cc1[N+](=O)[O-]` the figure was inactive: 23.8%; with `Nc1ccccc1[As](=O)(O)c1ccccc1`, inactive: 4.37%; with `CC(C)c1ccc(OP(=O)(Nc2ccccn2)Oc2ccccc2F)cc1` (stereo not given), inactive: -0.679%.
For the compound `ClCCSc1nnc(-c2cccnc2)o1`, the enhancement is inactive: 14.2%.
With `O=[N+]([O-])c1cc([N+](=O)[O-])c(-c2ccn[nH]2)s1` the figure was inactive: -2.33%; with `CCN(CC)C(=S)SC(NC=O)C(Cl)(Cl)Cl` (stereo not given), inactive: 7.38%.
In the case of `CC(C)NC(=O)NP(=O)(Oc1ccccc1)Oc1ccccc1` it was inactive: -2.11%; in that of `COc1cc(C(=O)NCC2(N3CCOCC3)CCCCC2)ccc1OCC(C)C`, inactive: 6.86%; in that of `O=[As](O)(c1ccc(O)cc1)c1ccccc1O`, inactive: -0.33%.
In the case of `C[As](=O)(O)c1cccc(C(=O)O)c1` it was inactive: 5.07%.
As for `Cc1ccc2nc3c(c(C)c2c1)CC(C(Cl)Cl)S3` (stereo not given), the enhancement was inactive: 10.9%.
For the compound `Cc1ccc(OP(=O)(Nc2ccc([N+](=O)[O-])cn2)Oc2ccc(C)cc2)cc1`, the enhancement was inactive: 2.65%.
With `COc1ccc(N/C(=N/P(=O)(N2CCOCC2)N2CCOCC2)N2CCOCC2)cc1` the figure was inactive: 27.5%; with `Cc1cc(=O)[nH]c(N[N+](=O)[O-])n1`, inactive: -2.75%; with `O=C(OC1CN2CCC1CC2)C12CC3CC(CC(C3)C1)C2` (stereo not given), inactive: -1.55%.
In the case of `Cc1c2c(nc3ccccc13)SC(C(Cl)Cl)C2` (stereo not given) it was inactive: -2.53%; in that of `COc1cc(I)ccc1[As](=O)(O)O`, inactive: -2.84%; in that of `COc1ccc2nc(NP(=O)(c3ccccc3)c3ccccc3)sc2c1`, inactive: 0.655%.
In the case of `CCOC(=O)c1ccc(NC(=O)C(C)(CCl)SC)cc1` (stereo not given) it was inactive: 3.18%.
For the compound `O=C(OC1CN2CCC1CC2)c1cccc([N+](=O)[O-])c1` (stereo not given), the enhancement was inactive: 3.87%.
With `CCOP(=O)(Nc1cccc2cccnc12)OCC` the figure was inactive: 4.07%; with `CCC(C)N(CC(C)C)C(=S)SC(NC(C)=O)C(Cl)(Cl)Cl` (stereo not given), inactive: 2.89%; with `COP1(=S)c2c(C)nn(CCC#N)c2N=C(c2ccc(F)cc2)N1C` (stereo not given), inactive: 4.22%.
With `O=C(Nc1ccncc1[N+](=O)[O-])c1ccc([N+](=O)[O-])cc1[N+](=O)[O-]` the figure was inactive: -0.989%.
